The text below walks through data of patent US20110263664A1, “Inhibitors of PIM-1 Protein Kinases, Compositions and Methods for Treating Prostate Cancer” (MUSC FOUNDATION FOR RESEARCH DEVELOPMENT, priority 2007, published 2011).

Amino acid sequences for entries named in this document (tags omitted).
UniProt P11309, whole entry: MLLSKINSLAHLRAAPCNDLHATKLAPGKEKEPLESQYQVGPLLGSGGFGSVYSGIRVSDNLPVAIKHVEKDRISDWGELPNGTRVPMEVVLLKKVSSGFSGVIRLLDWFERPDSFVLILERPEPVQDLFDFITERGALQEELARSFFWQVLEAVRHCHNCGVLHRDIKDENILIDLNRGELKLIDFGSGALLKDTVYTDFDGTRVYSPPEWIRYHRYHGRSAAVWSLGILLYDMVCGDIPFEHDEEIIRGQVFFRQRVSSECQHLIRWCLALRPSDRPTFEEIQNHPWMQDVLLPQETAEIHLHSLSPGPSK

In one assay the target is PIM1 (Homo sapiens, UniProt P11309). Kind of assay: Pim-1 protein kinase assay (Procedure 1), Table 1. The assay is classed as biochemical. Set-up: purchased Upstate 14-573.
Assay [1] has as its system Human prostate cancer PC3 cells. In words: Cytotoxicity assay (MTS), PC3 cells, Table 3. The settings on record: PC-3, 48 h, read-out: IC50 (PC3 cell assay).
In assay [2] the test system is Cdk2 activity in K562 cells. The settings on record: K562 cells treated 72 hours, 10% FCS; histone H1 as substrate.

Regarding `CCOc1ccc(/C=C2/C(=O)NC(=O)N2Cc2ccccc2)cc1` [Compound D29], the IC50 (in general, the concentration needed to halve the response being measured) against PIM1 was 73 ± 7.5 µM; in assay [1] it was 18 ± 9 µM. On the same counts, the results for `COc1ccc(/C=C2/C(=O)NC(=O)N2Cc2ccccc2)cc1` [Compound D28] are 38 ± 23 µM and 74 ± 20 µM. Take `CN(C)c1ccc(/C=C2/C(=O)NC(=O)N2Cc2ccccc2)cc1` [Compound D31]: in assay [1], the IC50 turned out to be 57 ± 23 µM. For the compound `O=C1NC(=O)/C(=C/c2cccc(C(F)(F)F)c2)S1` [Compound D5], in assay [2], the “decreased Cdk2 activity” value is approximately 50%. With `O=C1NC(=O)/C(=C/c2ccc(Br)cc2)S1` [Compound D11], in assay [1], the IC50 was 85 ± 12 µM.
